Measurements published in patent US20230057847A1 (Scripps Research, published 2023).

T1: human GLP-2R (human, UniProt O95838 1-553)
T1 sequence (looked up): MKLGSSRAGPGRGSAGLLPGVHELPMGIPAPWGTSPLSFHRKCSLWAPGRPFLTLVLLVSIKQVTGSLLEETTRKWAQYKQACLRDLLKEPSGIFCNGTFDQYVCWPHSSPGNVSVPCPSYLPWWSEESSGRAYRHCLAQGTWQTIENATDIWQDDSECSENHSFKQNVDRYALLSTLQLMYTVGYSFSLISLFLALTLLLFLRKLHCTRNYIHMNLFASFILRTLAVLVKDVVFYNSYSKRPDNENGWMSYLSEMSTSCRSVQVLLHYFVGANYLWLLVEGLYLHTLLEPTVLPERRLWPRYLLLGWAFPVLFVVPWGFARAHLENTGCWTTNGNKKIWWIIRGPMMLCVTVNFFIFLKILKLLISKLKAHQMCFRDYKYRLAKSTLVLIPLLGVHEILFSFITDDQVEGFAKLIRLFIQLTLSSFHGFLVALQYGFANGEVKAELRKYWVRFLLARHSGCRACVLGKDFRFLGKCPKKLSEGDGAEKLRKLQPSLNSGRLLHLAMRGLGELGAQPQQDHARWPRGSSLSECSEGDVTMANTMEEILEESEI


Molecular target: T1, human GLP-2R
Assay: cell-based or functional assay

Binder	GLP-2R - cAMP 0% FBS/nM (EC50, CRE-luciferase reporter) [nM]
HGDGSFSDEMNTILDNKAARDFIKWLIQTKITDPSSGAPPPS (staple K1F attached at positions 17, 24 (lysines)) [Conjugate 21: GLP2-2G-1K-EX4 (SEQ ID NO. 16) with staple K1F at positions 17, 24]	0.14
HGDGSFSDEMNTILDNKAARDFIKWLIQTKITDPSSGAPPPS (staple K1H attached at positions 17, 24 (lysines)) [Conjugate 22: GLP2-2G-1K-EX4 (SEQ ID NO. 16) with staple K1H at positions 17, 24]	0.23
